Measurements from publication PMC9260860 (Biochemistry, 2021).

Substrate: C[C@H]1O[C@@H](n2cnc3c(N)ncnc32)[C@H](O)[C@@H]1O
Assay: Enzymatic assay for HpAFLDA deaminase activity
Format: biochemical, H. pylori strain J99
Conditions: other: deamination by HpAFLDA, 50 mM HEPES pH 7.0, 25 °C

B1: HpAFLDA (jhp0252) (Helicobacter pylori J99) (protein)
chain: MQEIIGASLVFLCNEKCEVLEDYGVVFDEKIVEIGDYHNLTLKYPHLKAQFFENSVLLPAFINAHTHFEFSNNKASFDYGSFSGWLGSVLNNGGAILENCQGAIQNAIMAQLKSGVGSVGAISNHLIEVNLLKESPLNAVVFLEFLGSSYSLEKLKAFEAKFKELKDLEDQKLKAALAVHAPYSVQKDMALSVIQLAKDSQSLLSTHFLESLEELEWVENSKGWFENFYQRFLKESNFTSLYEGANDYIDMFKDTHTLFVHNQFASLEALKRIKSQVKNAFLITCPFSNRLLSGKALDLERVREAGLSVSVATDGLSSNISLSLLDELRAFLLSHNMPLLELAKIALLGATRHGAKALALNNGEIETNKRADLSVFGFNEKFTKEQAILQFLLHAKEVERLFLGGKRVI
For B1, which Km is on record?
Its Km is 130 ± 50 µM.
